Literature values as cited in patent US20160349242A1, “PLATFORM TECHNOLOGIES FOR SPONTANEOUSLY OCCURRING DISEASES” (Oatmeal Biotechnologies Group, LLC, priority 2009, published 2016).

System: cells in vitro
Details: cited from earlier work

bleomycin
increase of cytotoxicity by electropulsation: several thousand-fold
